The results in this text go back to paper PMC8928223.

Chains of the proteins cited; added tags and fusions are not shown. Residues count along the entry.
UniProt Q08345, 19-913: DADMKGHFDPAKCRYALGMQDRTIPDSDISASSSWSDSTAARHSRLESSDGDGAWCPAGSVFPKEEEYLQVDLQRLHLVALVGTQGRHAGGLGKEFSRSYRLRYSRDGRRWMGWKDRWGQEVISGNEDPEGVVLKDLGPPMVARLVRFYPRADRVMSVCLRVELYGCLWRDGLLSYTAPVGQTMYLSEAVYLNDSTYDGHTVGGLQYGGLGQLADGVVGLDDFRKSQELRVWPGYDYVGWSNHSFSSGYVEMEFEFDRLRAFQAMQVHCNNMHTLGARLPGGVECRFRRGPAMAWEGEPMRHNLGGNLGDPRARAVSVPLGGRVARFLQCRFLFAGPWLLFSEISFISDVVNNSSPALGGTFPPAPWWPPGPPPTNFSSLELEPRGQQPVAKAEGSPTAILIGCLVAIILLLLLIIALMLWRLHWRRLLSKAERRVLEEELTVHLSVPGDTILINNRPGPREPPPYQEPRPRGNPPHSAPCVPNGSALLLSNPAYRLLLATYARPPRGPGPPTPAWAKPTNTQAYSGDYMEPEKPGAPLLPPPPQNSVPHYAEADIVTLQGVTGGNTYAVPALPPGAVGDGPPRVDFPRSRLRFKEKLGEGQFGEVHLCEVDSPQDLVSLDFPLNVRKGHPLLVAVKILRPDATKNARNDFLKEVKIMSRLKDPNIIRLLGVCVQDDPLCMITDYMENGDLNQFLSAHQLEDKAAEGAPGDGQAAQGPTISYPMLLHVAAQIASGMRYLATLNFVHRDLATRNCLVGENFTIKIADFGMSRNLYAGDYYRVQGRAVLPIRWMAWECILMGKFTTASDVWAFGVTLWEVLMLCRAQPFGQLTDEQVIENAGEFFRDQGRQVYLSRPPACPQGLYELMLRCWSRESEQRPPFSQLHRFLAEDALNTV

The target of this assay is DDR1b-Turbo containing a Flag tag (human) (UniProt Q08345). The assay is described as follows: proximity labelling; BioID with turbo-Flag fused to DDR1 in HEK cells plated on collagen I (30 µg/ml) for 1-3 h with 50 µM biotin; streptavidin-agarose pull-down of the lysate and Western blot. On the technique in general: Immunoblotting shows a protein as a band on a membrane.

talin, Q9Y490 1-2541 had a fold increase in biotinylated talin against DDR1a-turbo cells of 2.29 fold.
